Results from patent US20030175745A1, “Peptides with growth inhibitory action” (priority 2001, published 2003).

Tested on: NIH3T3-PDGF-ββ cells
Assay: Growth assay with NIH3T3-PDGF-ββ cells, cell number by PicoGreen DNA
Type: cell-based
Procedure: NIH 3T3 cells transfected with PDGF-ββ (a stable cell line) were obtained from Mount Sinai School of Medicine. These cells overexpress PDGF-ββ and are activated via the PDGF-R in an autocrine fashion. Cells were grown at 37° C. in Dulbecco's Modified Eagles Medium (high glucose) (DMEM) with 10% heat-inactivated fetal calf serum (FCS) with 100 units or μg/ml penicillin/streptomycin with 750 μg/ml G418 sulfate (Geneticin) selection. Cells were incubated in an atmosphere of 5% CO2, and cultures were fed twice weekly. For subcultivation, cells were allowed to attain confluence and washed twice with PBS or Hank's balanced salt solution (minus Ca^++ and Mg^++) before addition of a trypsin/EDTA solution to dislodge the cells. Cells were split anywhere from ¼ to 1/12 into a sterile T-75 Flask depending on the time desired until confluence. […]
Cell number was assessed by measurement of total cellular double-stranded DNA using the PicoGreen Assay Kit (Molecular Probes, Eugene, Oreg., USA, lot #6405-1). […] Plates were read after five minutes in a fluorimeter (irradiated at an excitation wavelength of 485 nm). Fluorescence emission was measured at 530 nm using a CytoFluor Series 4000 (PerSeptive Biosystems, Framingham, Mass.). […] For analysis, DNA absorbance/emission was compared to the absorbance/emission shown by a standard curve of DNA.

For `NCCCC[C@H](NC(=O)[C@H](CCCCN)NC(=O)[C@H](CCCCN)NC(=O)[C@@H](N)CCCCN)C(=O)O` [KKKK], the “growth inhibition in the initial screen of the library” value was “inhibiting growth”.
